ChEMBL document CHEMBL1133522, “Chiral resolution, pharmacological characterization, and receptor docking of the noncompetitive mGlu1 receptor antagonist (+/-)-2-hydroxyimino- 1a, 2-dihydro-1H-7-oxacyclopropa[b]naphthalene-7a-carboxylic acid ethyl ester” (J Med Chem, 2000)

Chains of the proteins cited; added tags and fusions are not shown. Lines headed by an entry give the natural chain unless they say otherwise; changes in a name come on top.
UniProt Q13255: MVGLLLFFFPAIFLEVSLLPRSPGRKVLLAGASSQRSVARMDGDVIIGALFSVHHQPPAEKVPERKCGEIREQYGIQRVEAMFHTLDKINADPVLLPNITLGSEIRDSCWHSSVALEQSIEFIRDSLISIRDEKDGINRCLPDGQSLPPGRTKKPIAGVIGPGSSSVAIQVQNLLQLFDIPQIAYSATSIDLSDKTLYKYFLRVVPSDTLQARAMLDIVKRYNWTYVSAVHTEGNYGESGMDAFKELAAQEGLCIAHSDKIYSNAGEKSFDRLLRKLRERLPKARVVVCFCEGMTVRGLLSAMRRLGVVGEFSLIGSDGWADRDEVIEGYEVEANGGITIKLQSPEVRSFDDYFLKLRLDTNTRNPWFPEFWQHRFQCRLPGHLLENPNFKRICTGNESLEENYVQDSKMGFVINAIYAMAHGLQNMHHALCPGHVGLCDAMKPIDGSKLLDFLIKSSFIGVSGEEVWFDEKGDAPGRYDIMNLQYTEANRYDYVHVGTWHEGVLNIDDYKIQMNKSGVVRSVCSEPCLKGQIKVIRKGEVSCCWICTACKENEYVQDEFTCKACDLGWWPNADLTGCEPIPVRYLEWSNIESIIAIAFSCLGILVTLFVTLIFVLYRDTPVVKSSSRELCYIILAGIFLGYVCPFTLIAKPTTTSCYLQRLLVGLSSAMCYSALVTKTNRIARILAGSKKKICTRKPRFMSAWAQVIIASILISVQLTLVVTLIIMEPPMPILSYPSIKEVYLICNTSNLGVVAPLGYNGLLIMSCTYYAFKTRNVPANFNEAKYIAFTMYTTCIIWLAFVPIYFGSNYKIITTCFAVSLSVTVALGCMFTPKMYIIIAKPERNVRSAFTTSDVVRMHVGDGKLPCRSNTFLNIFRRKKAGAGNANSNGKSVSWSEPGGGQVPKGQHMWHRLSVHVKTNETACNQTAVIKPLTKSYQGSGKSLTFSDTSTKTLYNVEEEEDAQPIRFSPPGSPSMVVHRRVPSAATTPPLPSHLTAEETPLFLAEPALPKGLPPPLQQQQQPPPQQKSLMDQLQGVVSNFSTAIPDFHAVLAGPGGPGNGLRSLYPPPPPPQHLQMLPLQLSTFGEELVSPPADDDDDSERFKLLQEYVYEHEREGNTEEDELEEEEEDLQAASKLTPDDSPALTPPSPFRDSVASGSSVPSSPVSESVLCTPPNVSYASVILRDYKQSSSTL

How the values were obtained:
[1] = target: T1, Metabotropic glutamate receptor 1 (Homo sapiens, UniProt Q13255); conditions: CHO; 100 uM
[2] = target: T1, Metabotropic glutamate receptor 1; conditions: CHO; 100 uM; remark: listed apart in the source

SMILES | inhibition [1] [%] | inhibition [2] [%]
COC(=O)[C@H](Cc1ccccc1)NC(=O)[C@]12C[C@H]1/C(=N\O)c1ccccc1O2 | 48 | 
COC(=O)[C@@H](Cc1ccccc1)NC(=O)[C@@]12C[C@@H]1/C(=N\O)c1ccccc1O2 |  | 23
